Results from patent US9346794B1, “Substituted 4-pyridones and their use as inhibitors of neutrophil elastase activity” (Boehringer Ingelheim International GmbH, priority 2012, dated 2016).

By UniProt entry, the sequences of proteins in these tests, tags left out. Residues count along the entry.
UniProt P08246, 30-247 limits assumed: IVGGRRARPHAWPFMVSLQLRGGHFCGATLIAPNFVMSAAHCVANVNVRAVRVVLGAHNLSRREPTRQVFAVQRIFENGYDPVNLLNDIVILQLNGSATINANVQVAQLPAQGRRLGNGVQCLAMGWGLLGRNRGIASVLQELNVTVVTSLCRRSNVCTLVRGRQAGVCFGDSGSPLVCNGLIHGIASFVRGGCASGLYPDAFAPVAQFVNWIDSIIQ

Target: Human neutrophil elastase (Homo sapiens (Human), UniProt P08246)
Assay: Human Neutrophil Elastase Assay
Conditions: substrate MeOSuc-Ala-Ala-Pro-Val-AMC 250 μM, fluorescence, pH 7.5

| IC50 [nM] | Compound |
| --- | --- |
| 2.7 | CCn1cc(C(=O)NCc2ccc(S(C)(=O)=NC#N)cc2)c(=O)c(-c2cccc(C(F)F)c2)c1C (single isomer, unassigned) [5.5B] |
| 5 | CCn1cc(C(=O)NCc2ccc(S(C)(=O)=NC#N)cc2)c(=O)c(-c2cccc(C(F)F)c2)c1C (single isomer, unassigned) [5.5A] |
